The target in the test is Mitogen-activated protein kinase 10 (Homo sapiens, UniProt P53779). Description: Homogeneous Time-Resolved Fluorescence (HTRF) Enzyme Assay. The note with it: pH 7; 22 °C. As to the method:
The HTRF signal is calculated as a ratio of the A-counts to B-counts. The signal produced is proportional to the amount of JNK3 or p38 kinase activity present during the kinase reaction phase.

By UniProt entry, the sequences of proteins in these tests, tags left out. Where a name states a change or a piece, a line headed by the entry shows the natural chain unless it says otherwise.
UniProt P53779: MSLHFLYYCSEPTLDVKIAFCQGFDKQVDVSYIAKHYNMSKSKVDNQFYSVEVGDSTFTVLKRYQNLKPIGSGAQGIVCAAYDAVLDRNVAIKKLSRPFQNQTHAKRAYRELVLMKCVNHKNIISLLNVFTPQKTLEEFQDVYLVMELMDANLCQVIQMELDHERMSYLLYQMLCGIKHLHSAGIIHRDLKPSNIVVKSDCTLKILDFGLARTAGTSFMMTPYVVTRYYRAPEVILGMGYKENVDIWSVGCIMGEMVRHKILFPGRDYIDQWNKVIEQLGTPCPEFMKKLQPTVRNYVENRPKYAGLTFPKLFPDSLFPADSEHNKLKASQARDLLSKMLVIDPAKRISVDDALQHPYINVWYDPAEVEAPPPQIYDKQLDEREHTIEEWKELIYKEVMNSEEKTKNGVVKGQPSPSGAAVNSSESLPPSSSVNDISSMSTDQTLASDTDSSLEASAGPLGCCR

In BindingDB's records for doi:10.1016/S1074-5521(03)00159-5 (Merck Research Laboratories, 2003) one finds IC50 data, which are given here for one molecule.

The term IC50 denotes the concentration at which inhibition is half-maximal. The low end stands for higher potency, the high end for lower potency.

In turn, `CCCn1c(C2CCN(C)CC2)nc(-c2ccc(Cl)c(Cl)c2)c1-c1ccnc(NC2CC2)n1` returned a half-inhibitory concentration (IC50) of 7.1 nM.
